We go through one substance from patent US6423347B1, “Method and product using sturgeon notochord for alleviating the symptoms of arthritis” (Abbott Laboratories, priority 1997, dated 2002).

The subject of this data set is collagen-induced arthritis (CIA). It counts as in vivo. The following applies: groups of 20 mice; 300 μg protein dose oral on Days −10, −7, −5 and −2. On the procedure:
These Examples were conducted to investigate the effectiveness of sturgeon notochord in protecting mice from collagen-induced arthritis (CIA). Female DBA/1 Lac J strain mice, approximately 6-8 weeks of age, were obtained from Jackson Laboratories of Bar Harbor, Maine. Three groups of 20 mice per group were acclimated to their surroundings for 7 days. A standard mouse chow (Purina Certified Mouse Chow #5015; 11% by wt. fat; collagen-free) and water were provided for ad libitum consumption to all animals.
On Days −10, −7, −5 and −2 prior to immunization, mice were sensitized by one of three test compositions; bovine serum albumin (BSA, a tolerogenically inert protein in CIA), cod skin gelatin, or sturgeon notochord. Bovine serum albumin (a protein derived from non-connective tissue) and cod skin gelatin (a protein derived from another connective tissue containing Type I collagen of a fish) served as negative controls. Sturgeon notochord was obtained from farm raised sturgeon and pulverized in liquid nitrogen. […]
Mice were inspected daily for the onset of CIA, characterized by erythema and edema. Limbs were clinically evaluated and graded on a scale of 0 to 3 (0, absence of arthritis; 1, mild swelling and erythema; 2, swelling and erythema of both tarsus and ankle; 3, ankylosis and bone deformity). […]

Take bovine serum albumin [BSA]: the “# of animals dead” value turned out to be 2.
